The source of these data is publication PMC4159583, “Evaluation of the Interaction between Phosphohistidine Analogues and Phosphotyrosine Binding Domains” (Chembiochem, 2014).

In the assay the target is T1, phosphotyrosine-containing peptide with an N-terminal fluorescein, 17.
T1 chain: SYVNVQ
Kind of assay: fluorescence polarisation; fluorescence anisotropy; fluorescein peptide 17 titrated with purified His6-(Grb2-SH2). Particulars: remark: other sources report otherwise.

B1: monomeric His6-(Grb2-SH2), P62993 60-152 (domain or fragment)
chain: WFFGKIPRAKAEEMLSKQRHDGAFLIRESESAPGDFSLSVKFGNDVQHFKVLRDGAGKYFLWVVKFNSLNELVDYHRSTSVSRNQQIFLRDIE
modifications: here or on the partner: phosphotyrosine; fluorescein on the N-terminus
Broadly, the Kd is the equilibrium constant for the complex coming apart. Take B1: the Kd came to 283 nM.
